This note sets out measurements from article PMC2779060.

The target in this test is goose δ-crystallin E294L mutant (goose) (UniProt P33110). The experiment in a line: AUC; sedimentation velocity, 20 °C, 130,000 x g, An50 Ti rotor; radial scans every 5 min for about 3 h.

On to “goose δ-crystallin E294L mutant (from UniProt P33110 2-466) (natural protein)”, for which the stoichiometry N was found to be 4.

What is called stoichiometry N is the number of molecules, sites or subunits per partner or assembly.
